System: Strains in all clusters
Assay: Resistance to other oxyanions under aerobic growth conditions
Type: cell-based
Conditions: 0.7 mM, aerobic growth conditions (data not shown)

arsenite
Resistance of strains to oxyanion: resistant

Source: patent US20090246519A1 (priority 2008, published 2009)
